# Ab-14 light chain CDR variants: yeast mating affinities

From the AlphaSeq antibody data of Engelhart et al. 2022 (doi:10.1038/s41597-022-01779-4), copy in the FLAb collection.

Binding partner: SARS-CoV-2 spike HR2 peptide, sequence PDVDLGDISGINAS.

Ab-14 is the parent antibody, in scFv form: VH, then the linker GGGGSGGGGSGGGGS, then VL. The heavy chain is unchanged in all variants.
VH: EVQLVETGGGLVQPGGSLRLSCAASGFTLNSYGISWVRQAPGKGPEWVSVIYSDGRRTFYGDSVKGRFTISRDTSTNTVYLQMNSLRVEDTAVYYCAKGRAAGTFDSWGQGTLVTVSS
VL: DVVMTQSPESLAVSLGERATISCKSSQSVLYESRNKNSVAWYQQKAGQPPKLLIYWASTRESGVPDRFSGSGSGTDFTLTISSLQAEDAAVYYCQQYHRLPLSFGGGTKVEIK

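Phage display of a naive human antibody library on the peptide gave the parent. Library AAYL50 holds single substitutions and randomly drawn double and triple substitutions in the CDRs. The assay is AlphaSeq: two haploid yeast populations carry antibody and antigen on their surface. After mating in shaken culture at 30 °C for 16 h, diploids were selected and their barcode pairs sequenced. The ratio of observed to expected reads was calibrated, replicate by replicate, on BCL2-family standards whose Kd was known from biolayer interferometry. The assay was run in three technical replicates.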

The parent's light chain CDRs are KSSQSVLYESRNKNSVA, WASTRES, QQYHRLPLS; each variant's own CDRs replace them letter for letter.
All variants listed here change H98 of the VL, counted from its first residue.
Values are apparent Kd, the geometric mean of the replicates that gave a signal; lower means stronger binding.
An entry "not detected" has no value in the source: the pair was not observed among the diploids in any replicate. This suggests poor binding but is not conclusive.
Entries are sorted by rising average, undetected variants last.
As a blank, each scFv also met three strains without target: over library AAYL50, 18% of these pairings were detected, typically at 15 µM and seldom below 970 nM.

CDR-L1	CDR-L2	CDR-L3	apparent Kd	replicates with signal
KSSQSVLYESRNKNSVA	WGNTRES	QQYIRLPLS	2.0 nM	3 of 3
KSSQSVLYESRNKNSVA	SASTRES	QQYIRLPLF	2.3 nM	3 of 3
KSSQSVLYESRNVNSVA	WASTREA	QQYNRLPLS	4.9 nM	3 of 3
KSSQSVLYHSYNKNSVA	WASTRES	QQYKRLPLS	5.2 nM	3 of 3
KSSQSVLYESDNKNSVA	WASTRKS	QQYYRLPLS	7.1 nM	3 of 3
KSSQSVLYESRNKGSVA	WASTREQ	QQYYRLPLS	8.3 nM	3 of 3
KSSQSVLYESRNKNSVA	WASTRTS	QQYMRPPLS	8.7 nM	3 of 3
KSSQSVLYESRNGNSVA	WASKRES	QQYDRLPLS	9.5 nM	3 of 3
KSSQSVLTESRNNNSVA	WASTRES	QQYFRLPLS	16 nM	3 of 3
KSSQSVLYWSRVKNSVA	WASTRES	QQYNRLPLS	19 nM	3 of 3
KSSQSVLYESRNKNSVA	WASARES	QQYNRLPCS	25 nM	3 of 3
KSSQSVLYESRNKNSVA	WASTRES	QQYERLPCS	32 nM	3 of 3
KSSQSVLYESRNKNSVA	WASTREL	QQYMRLPLS	35 nM	3 of 3
KSSQSVLYHSRNSNSVA	WASTRES	QQYRRLPLS	36 nM	3 of 3
KSSQSVLYESRNKNSVA	WAETRPS	QQYMRLPLS	36 nM	3 of 3
KSSQSVLYESRNKMSVA	WASTRES	QQYYRLPLS	53 nM	3 of 3
KSSQSVLYMSRNKESVA	WASTRES	QQYTRLPLS	53 nM	3 of 3
KSSQSVHYESRNKNSVA	WASTRES	QQSERLPLS	57 nM	3 of 3
KSSQSVLYESRNKNSVA	WASWREF	QQYGRLPLS	63 nM	3 of 3
KSSQSVLYESRNKNSVA	WASTREC	GQYGRLPLS	160 nM	3 of 3
KKSQSVLYESRNKNDVA	WASTRES	QQYRRLPLS	160 nM	3 of 3
KSSQSVLYESRNWNSVA	WASTRRS	QQYERLPLS	260 nM	3 of 3
KSSQSVLYESRNKRSVA	WDSTRES	QQYMRLPLS	320 nM	3 of 3
KSSQSVLYESANKNSVA	WASTREG	QQYDRLPLS	400 nM	3 of 3
KSSQSVLYESRNKNSVA	WALTRES	QQYVRLPLS	430 nM	3 of 3
KSSQSVLYESRNNNSVA	WASTRES	QQYDRPPLS	530 nM	1 of 3
KSSQSVLYESRNKNSVA	WASTRES	QWWVRLPLS	570 nM	3 of 3
KSSQSVLFESRNKNMVA	WASTRES	QQYDRLPLS	620 nM	3 of 3
KSSQSVLYESRNKNSVA	WALTRES	QQYFALPLS	810 nM	3 of 3
KSIQSVLYWSRNKNSVA	WASTRES	QQYCRLPLS	910 nM	3 of 3
KSSDSVLYESRNKNSVA	WASTRES	QQYVRLPCS	930 nM	3 of 3
KSSQSVLYPSRQKNSVA	WASTRES	QQYPRLPLS	1.5 µM	3 of 3
ASSQSVLYISRNKNSVA	WASTRES	QQYVRLPLS	2.2 µM	3 of 3
KSSFSVLYCSRNKNSVA	WASTRES	QQYPRLPLS	2.3 µM	1 of 3
KSSQSVLYESRNKNSVA	WASSRES	QQYMRLYLS	2.4 µM	3 of 3
KSSMSVLYESRNKNSEA	WASTRES	QQYVRLPLS	2.8 µM	1 of 3
KSSQSVLTESRNKNSVA	WASTRES	QQYVRLPAS	3.2 µM	2 of 3
KSSQSVLKESRNKNSVA	WASTRES	PQYVRLPLS	4.3 µM	1 of 3
KSSQSNLYESRNKNSVA	WASTAES	QQYSRLPLS	5.6 µM	3 of 3
KSSQSVDYESRMKNSVA	WASTRES	QQYMRLPLS	20 µM	1 of 3
KSMQSVLYESRNKNSVA	WASTRES	QQKQRLPLS	21 µM	1 of 3
KSSQSVLYESRNKNSVA	WATTRES	TQYCRLPLS	33 µM	2 of 3
KSSQSVLYESRNKNSVA	WYSTKES	QQYIRLPLS	39 µM	2 of 3
RSSQSVLYESRNKNSVA	WASTRES	QQCVRLPLS	40 µM	1 of 3
FSSQSVLYESRNKNSVA	WASTRES	QQYRRNPLS	41 µM	1 of 3
KSFQSVLYESRNKNSVA	WASTRES	QVYLRLPLS	110 µM	3 of 3
KSSMSVLYESRNKNSVA	WASTRES	QPYKRLPLS	not detected	0 of 3
KSSQPVLYESRNKNSVD	WASTRES	QQYNRLPLS	not detected	0 of 3
KSSQSVLYESRNKNSVA	LASTRES	QVYGRLPLS	not detected	0 of 3
KSSQSVLYESRWKNSVA	WASTRES	QQALRLPLS	not detected	0 of 3
KSSQSVLYESRNKNSDA	WASTRDS	QQYIRLPLS	not detected	0 of 3
KSSQSVLYESRNKNSWA	WASTRES	QLYRRLPLS	not detected	0 of 3
KSSLSVLYESRNKNSVA	WDSTRES	QQYFRLPLS	not detected	0 of 3
KSSQSVLYESRNKNSVE	WASTRES	QNYQRLPLS	not detected	0 of 3
KSSQSVLYESRNKNSVA	WASTQES	YQYIRLPLS	not detected	0 of 3
KSCQSVLYESRNKNSVL	WASTRES	QQYRRLPLS	not detected	0 of 3
KSSQSVAYESRNKNSVQ	WASTRES	QQYIRLPLS	not detected	0 of 3
KSSQSVLYESRNKNSVA	WASTRES	QQYSRLTLS	not detected	0 of 3
KSTWSVLYESRNKNSVA	WASTRES	QQYIRLPLS	not detected	0 of 3
KSSQSVLYESRNKNSVA	WASTRES	QQYWRWPLS	not detected	0 of 3
KSSQSVLYESRNKNSQA	WASDRES	QQYYRLPLS	not detected	0 of 3
KSSQSVLFESRNKNSVA	WASTREG	QQYRRLPLS	not detected	0 of 3
KSSQSVLYESRNKNSVS	WASTREN	QQYDRLPLS	not detected	0 of 3
KSSQSVLYESRNKNSRA	WASTRES	QQYWKLPLS	not detected	0 of 3

Picked from the list: the 6 lowest averages where every replicate gave a value.

CDR-L1	CDR-L2	CDR-L3	apparent Kd	replicates with signal
KSSQSVLYESRNKNSVA	WGNTRES	QQYIRLPLS	2.0 nM	3 of 3
KSSQSVLYESRNKNSVA	SASTRES	QQYIRLPLF	2.3 nM	3 of 3
KSSQSVLYESRNVNSVA	WASTREA	QQYNRLPLS	4.9 nM	3 of 3
KSSQSVLYHSYNKNSVA	WASTRES	QQYKRLPLS	5.2 nM	3 of 3
KSSQSVLYESDNKNSVA	WASTRKS	QQYYRLPLS	7.1 nM	3 of 3
KSSQSVLYESRNKGSVA	WASTREQ	QQYYRLPLS	8.3 nM	3 of 3